Results on one compound are retold here after ChEMBL document CHEMBL5723584 (2023).

By UniProt entry, the sequences of proteins in these tests, tags left out. Where a name states a change or a piece, a line headed by the entry shows the natural chain unless it says otherwise.
UniProt Q9HBH9: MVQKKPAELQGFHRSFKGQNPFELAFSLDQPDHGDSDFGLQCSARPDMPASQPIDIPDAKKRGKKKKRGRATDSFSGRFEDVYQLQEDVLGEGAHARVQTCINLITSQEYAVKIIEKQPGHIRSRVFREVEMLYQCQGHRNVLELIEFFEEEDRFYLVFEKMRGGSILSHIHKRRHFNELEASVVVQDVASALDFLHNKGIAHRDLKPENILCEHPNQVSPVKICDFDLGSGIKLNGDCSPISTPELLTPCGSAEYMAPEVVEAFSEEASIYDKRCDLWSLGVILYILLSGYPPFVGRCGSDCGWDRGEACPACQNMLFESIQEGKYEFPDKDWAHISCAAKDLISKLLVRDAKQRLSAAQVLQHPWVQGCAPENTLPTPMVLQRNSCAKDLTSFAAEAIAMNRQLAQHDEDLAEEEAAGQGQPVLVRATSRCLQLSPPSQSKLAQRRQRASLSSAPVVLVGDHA
UniProt Q9NSY1, whole entry, looked up: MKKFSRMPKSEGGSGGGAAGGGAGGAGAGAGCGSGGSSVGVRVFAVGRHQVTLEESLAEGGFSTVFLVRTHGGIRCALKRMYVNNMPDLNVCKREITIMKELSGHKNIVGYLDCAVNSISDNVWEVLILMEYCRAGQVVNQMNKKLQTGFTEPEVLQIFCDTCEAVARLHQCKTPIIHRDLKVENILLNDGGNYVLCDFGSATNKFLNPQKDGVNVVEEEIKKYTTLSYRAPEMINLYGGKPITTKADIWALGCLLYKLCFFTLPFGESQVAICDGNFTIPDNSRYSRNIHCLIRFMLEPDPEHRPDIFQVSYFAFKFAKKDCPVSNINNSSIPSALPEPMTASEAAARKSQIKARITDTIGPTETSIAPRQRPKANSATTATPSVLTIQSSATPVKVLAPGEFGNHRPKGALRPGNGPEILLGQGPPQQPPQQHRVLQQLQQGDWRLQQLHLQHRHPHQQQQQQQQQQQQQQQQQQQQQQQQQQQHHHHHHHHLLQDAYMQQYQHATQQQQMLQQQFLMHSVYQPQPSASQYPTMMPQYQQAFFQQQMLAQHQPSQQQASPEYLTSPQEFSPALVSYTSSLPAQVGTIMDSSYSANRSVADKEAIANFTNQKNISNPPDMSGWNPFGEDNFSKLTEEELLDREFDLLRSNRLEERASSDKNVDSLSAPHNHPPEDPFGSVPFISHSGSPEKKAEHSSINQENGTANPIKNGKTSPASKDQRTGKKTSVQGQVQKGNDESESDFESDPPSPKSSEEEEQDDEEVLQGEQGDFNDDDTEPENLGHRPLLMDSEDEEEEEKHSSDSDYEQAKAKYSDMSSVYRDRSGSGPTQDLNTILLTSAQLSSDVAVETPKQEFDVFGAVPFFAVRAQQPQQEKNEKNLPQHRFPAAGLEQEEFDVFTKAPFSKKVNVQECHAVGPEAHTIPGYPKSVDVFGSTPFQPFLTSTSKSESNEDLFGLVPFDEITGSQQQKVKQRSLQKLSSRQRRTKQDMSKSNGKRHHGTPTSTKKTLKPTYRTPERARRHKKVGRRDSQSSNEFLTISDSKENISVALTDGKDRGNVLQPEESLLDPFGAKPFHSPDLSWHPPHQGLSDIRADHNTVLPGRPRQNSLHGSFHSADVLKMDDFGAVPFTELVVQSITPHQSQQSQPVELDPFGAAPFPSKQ
UniProt O14578, whole entry: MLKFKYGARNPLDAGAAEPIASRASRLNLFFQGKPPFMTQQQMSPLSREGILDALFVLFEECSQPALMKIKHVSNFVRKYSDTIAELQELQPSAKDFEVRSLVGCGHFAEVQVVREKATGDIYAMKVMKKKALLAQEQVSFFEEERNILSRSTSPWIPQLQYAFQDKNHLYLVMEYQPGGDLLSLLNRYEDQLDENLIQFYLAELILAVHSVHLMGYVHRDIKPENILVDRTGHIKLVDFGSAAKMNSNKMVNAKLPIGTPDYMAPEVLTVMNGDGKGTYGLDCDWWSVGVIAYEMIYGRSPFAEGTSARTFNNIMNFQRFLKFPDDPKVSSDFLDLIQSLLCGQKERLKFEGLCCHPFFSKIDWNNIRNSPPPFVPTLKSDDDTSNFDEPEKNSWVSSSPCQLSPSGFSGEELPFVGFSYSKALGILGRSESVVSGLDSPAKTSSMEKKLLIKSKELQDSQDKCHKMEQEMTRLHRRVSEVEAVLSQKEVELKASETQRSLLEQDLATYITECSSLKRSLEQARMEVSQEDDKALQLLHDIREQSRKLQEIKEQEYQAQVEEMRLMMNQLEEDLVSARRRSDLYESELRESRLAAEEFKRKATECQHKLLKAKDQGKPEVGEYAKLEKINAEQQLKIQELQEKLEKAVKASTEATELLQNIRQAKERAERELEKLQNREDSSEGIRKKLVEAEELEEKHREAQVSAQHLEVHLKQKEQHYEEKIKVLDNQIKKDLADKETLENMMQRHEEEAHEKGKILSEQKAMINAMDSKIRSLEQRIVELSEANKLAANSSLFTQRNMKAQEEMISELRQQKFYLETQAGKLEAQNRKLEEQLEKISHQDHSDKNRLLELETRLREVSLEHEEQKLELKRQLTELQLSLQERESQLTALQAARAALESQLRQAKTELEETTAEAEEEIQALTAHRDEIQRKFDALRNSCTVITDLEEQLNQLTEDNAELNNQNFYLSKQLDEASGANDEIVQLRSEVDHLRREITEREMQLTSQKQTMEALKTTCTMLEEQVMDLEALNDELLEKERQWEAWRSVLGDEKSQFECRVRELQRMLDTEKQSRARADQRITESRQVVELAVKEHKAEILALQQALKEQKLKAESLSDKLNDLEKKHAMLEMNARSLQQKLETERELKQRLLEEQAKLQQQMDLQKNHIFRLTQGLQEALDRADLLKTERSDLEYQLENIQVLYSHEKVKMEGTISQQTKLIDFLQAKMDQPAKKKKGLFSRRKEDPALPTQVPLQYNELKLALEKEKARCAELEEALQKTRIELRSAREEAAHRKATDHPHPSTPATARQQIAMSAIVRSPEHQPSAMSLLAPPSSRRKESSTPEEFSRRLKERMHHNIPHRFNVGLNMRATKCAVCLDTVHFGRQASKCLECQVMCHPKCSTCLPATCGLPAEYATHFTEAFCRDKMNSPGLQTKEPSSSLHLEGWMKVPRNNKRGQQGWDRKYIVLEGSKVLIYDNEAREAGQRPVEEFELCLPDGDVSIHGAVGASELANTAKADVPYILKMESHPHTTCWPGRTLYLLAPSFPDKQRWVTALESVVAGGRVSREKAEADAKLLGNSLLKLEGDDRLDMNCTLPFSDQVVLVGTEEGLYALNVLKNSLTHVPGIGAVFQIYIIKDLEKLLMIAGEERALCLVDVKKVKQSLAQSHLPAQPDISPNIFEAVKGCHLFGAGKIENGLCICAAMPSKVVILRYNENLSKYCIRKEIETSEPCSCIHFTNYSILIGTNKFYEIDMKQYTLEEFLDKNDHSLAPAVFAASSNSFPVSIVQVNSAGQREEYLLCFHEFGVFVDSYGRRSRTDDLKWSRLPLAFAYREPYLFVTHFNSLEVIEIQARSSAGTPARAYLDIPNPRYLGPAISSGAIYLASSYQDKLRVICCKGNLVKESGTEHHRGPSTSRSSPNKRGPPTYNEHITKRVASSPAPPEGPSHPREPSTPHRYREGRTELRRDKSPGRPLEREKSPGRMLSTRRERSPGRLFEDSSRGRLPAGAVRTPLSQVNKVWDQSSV
UniProt Q2M2I8: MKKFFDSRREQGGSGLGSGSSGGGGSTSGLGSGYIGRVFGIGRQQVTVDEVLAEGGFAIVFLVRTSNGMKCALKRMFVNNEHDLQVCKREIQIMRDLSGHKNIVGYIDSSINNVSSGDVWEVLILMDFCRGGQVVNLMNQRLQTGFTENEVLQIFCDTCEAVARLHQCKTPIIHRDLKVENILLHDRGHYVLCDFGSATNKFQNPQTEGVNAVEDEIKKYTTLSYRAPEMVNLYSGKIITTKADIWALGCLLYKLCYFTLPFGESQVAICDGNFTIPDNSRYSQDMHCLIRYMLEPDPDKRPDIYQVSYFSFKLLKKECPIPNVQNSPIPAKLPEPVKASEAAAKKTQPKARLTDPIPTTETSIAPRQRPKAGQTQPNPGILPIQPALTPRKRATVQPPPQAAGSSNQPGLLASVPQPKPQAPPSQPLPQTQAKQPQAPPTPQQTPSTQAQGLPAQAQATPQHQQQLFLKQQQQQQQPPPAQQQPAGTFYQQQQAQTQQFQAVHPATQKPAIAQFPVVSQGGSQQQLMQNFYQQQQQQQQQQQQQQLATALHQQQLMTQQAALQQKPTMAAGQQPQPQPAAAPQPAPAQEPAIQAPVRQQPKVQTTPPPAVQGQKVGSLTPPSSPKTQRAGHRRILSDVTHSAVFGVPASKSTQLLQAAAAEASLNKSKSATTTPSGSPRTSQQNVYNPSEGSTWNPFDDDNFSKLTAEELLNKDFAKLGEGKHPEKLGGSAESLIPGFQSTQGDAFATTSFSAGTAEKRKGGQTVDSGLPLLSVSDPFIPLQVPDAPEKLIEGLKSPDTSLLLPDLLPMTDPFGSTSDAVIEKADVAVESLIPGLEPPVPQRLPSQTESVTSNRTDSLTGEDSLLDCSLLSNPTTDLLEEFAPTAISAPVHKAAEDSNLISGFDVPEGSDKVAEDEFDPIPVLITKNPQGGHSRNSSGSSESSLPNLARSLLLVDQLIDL

Holding throughout (conditions): Compound concentration 1.0 uM
The target in test [1] is MAP kinase-interacting serine/threonine-protein kinase 2 (Homo sapiens, UniProt Q9HBH9). As to the kind of experiment: activity of Mnk2(h) at 1.0 µM in the Eurofins Kinase panel.
Test [2] has as its target BMP-2-inducible protein kinase (Homo sapiens, UniProt Q9NSY1). The test can be described thus: activity of BIKE(h) at 1.0 µM in the Eurofins Kinase panel.
The target of test [3] is Citron Rho-interacting kinase (Homo sapiens, UniProt O14578). As to the kind of experiment: activity of CRIK(h) aka CITK at 1.0 µM in the Eurofins Kinase panel.
Test [4] has as its target T1, Homeodomain-interacting protein kinase 4 (Homo sapiens) (UniProt Q8NE63).
T1 sequence (whole entry): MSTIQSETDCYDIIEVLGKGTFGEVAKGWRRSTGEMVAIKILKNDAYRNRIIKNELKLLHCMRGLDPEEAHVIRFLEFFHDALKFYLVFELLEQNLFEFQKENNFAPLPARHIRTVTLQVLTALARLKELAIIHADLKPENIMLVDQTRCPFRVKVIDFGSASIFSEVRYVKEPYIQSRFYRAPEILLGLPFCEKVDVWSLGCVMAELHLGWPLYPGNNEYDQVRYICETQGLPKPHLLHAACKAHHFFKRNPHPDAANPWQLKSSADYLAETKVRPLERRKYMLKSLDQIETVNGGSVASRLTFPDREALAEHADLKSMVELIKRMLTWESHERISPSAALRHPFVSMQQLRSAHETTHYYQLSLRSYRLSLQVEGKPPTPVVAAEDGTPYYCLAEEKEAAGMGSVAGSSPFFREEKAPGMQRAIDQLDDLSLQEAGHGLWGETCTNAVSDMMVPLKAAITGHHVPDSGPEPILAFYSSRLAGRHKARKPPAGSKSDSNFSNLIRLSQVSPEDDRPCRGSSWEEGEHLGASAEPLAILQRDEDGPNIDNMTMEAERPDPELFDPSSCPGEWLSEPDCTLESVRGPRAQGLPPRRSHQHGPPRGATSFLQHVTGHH
As to the kind of experiment: activity of HIPK4(h) at 1.0 µM in the Eurofins Kinase panel.

In test [5] the target is AP2-associated protein kinase 1 (Homo sapiens, UniProt Q2M2I8). The test can be described thus: activity of AAK1(h) at 1.0 µM in the Eurofins Kinase panel.

SMILES strings stand for the structures.

As to `Cc1cc2c(-c3ccc(NC(=O)[C@H](N)CC(C)(C)C)cc3C)ccnc2[nH]1`, the activity stood at 35% in test [1]; 50% in test [2]; 0% in test [3]; 52% in test [4]; 13% in test [5].
